Assay results: PubChem BioAssay AID1460 (National Center for Advancing Translational Sciences (NCATS), 2008)
The entries are a selection whose mix differs from that of the whole data set. Records with an inconclusive call do not appear. Entries that show only a call come without a potency. The source made the active and inactive calls. The call rests on the fitted dose curve; in most records, active means well fitted inhibition curve with a large enough effect; inconclusive means small, poorly fitted or top-dose-only effect; inactive means flat fitted curve, though single readings scatter.

By UniProt entry, the sequences of proteins in these tests, tags left out.
UniProt P10636, whole entry, looked up: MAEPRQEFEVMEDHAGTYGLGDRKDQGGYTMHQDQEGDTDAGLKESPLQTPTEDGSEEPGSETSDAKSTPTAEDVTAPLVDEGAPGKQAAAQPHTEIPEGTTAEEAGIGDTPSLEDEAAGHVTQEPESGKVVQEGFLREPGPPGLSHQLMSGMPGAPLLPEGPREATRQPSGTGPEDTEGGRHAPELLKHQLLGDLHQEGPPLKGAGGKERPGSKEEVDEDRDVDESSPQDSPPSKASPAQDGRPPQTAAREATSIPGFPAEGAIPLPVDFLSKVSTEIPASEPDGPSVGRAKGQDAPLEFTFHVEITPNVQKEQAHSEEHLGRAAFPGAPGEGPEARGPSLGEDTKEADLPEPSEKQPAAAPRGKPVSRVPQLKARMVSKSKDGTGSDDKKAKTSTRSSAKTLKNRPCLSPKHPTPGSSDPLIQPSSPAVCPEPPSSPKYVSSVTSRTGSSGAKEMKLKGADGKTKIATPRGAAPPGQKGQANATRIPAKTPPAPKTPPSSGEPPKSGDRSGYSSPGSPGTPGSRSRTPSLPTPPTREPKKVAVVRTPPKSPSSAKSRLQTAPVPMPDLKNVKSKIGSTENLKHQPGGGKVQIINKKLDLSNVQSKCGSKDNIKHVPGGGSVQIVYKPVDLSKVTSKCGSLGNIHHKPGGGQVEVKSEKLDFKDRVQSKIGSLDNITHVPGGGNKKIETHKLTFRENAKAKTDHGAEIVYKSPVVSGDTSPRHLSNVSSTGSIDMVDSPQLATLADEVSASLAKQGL

Each compound was assayed against Microtubule-associated protein tau (Homo sapiens) (UniProt P10636) (assay: qHTS for Inhibitors of Tau Fibril Formation, Thioflavin T Binding). Details: recombinant tau K18 P301L (four-repeat tau fragment), heparin-induced fibrillization, ThT fluorescence; series mostly up to 57.4 µM.
Further: nearly all actives have a fitted effect of over 55% in size.
Potency means the concentration at half of the fitted maximal effect.

Question: Which Potency does the source give for `O=P1(Nc2ncccn2)COc2ccccc2OC1` here?
Answer: The Potency was “inactive”.

Question: With `O=P1(Nc2ccc(Br)cn2)COc2ccccc2OC1` as the compound, how does the Potency read?
Answer: The Potency was “inactive”.

Question: How did the Potency turn out when `Cc1ccc(OCC(=O)OC2CN3CCC2CC3)cc1` (configuration not stated) was run?
Answer: The Potency was “inactive”.

Question: With `O=[As](O)(c1cccs1)c1cccs1` as the compound, how does the Potency read?
Answer: The Potency was “inactive”.

Question: `Nc1cccc([As](=O)(O)c2ccccc2)c1` was tested. Which Potency did it give?
Answer: Its Potency is “inactive”.

Question: For `Cc1nn(-c2ccccc2)c2c1P(=O)(N1CCOCC1)N(C)C(c1ccccc1)=N2` (configuration not stated), which Potency is on record?
Answer: The Potency was “inactive”.

Question: How did the Potency turn out when `CC1CCC(C(C)C)C(OP(=O)(Nc2ccccn2)c2ccccc2)C1` (configuration not stated) was run?
Answer: The Potency was “inactive”.

Question: With `O=C(/C=C/c1ccccc1)OC1CN2CCC1CC2` (configuration not stated) as the compound, how does the Potency read?
Answer: Its Potency is “inactive”.

Question: Which Potency does the source give for `CN(C)C1(CNC(=O)c2ccc(S(C)(=O)=O)cc2)CCCCC1` here?
Answer: Its Potency is “inactive”.

Question: Which Potency does the source give for `O=[As](O)(c1ccccc1Br)c1ccccc1Br` here?
Answer: Its Potency is “inactive”.

Question: Which Potency does the source give for `CC(C)/C=N\N=C(\N)N[N+](=O)[O-]` here?
Answer: The Potency was “inactive”.

Question: How did the Potency turn out when `CN(CCCl)Cc1cc(Cl)c(NC2=NCCN2)c(Cl)c1` was run?
Answer: The Potency was “inactive”.

Question: How did the Potency turn out when `CCOP(=O)(Nc1ccc(C)cn1)OCC` was run?
Answer: Its Potency is “inactive”.

Question: How did the Potency turn out when `O=P1(Nc2ccccn2)COc2ccccc2OC1` was run?
Answer: The Potency was “inactive”.

Question: For `Clc1n[nH]nc1-c1nn[nH][15n]1`, which Potency is on record?
Answer: The Potency was “inactive”.

Question: `CCCOP(=S)(Nc1nc(N)cc(=O)[nH]1)OCCC` was tested. Which Potency did it give?
Answer: The Potency was “inactive”.

Question: `Cc1ccc(NCCc2c([N+](=O)[O-])cc([N+](=O)[O-])cc2[N+](=O)[O-])cc1` was tested. Which Potency did it give?
Answer: Its Potency is active: 15.8 µM.

Question: `COc1cc(C2NCCC3(OCCO3)C2(C)C)cc(OC)c1OC` (configuration not stated) was tested. Which Potency did it give?
Answer: Its Potency is “inactive”.

Question: How did the Potency turn out when `CCOP(=O)(Nc1cccc2ccccc12)OCC` was run?
Answer: Its Potency is “inactive”.

Question: Which Potency does the source give for `COc1cc(C(=O)NCC2(N3CCOCC3)CCCCC2)cc(Cl)c1OC(C)C` here?
Answer: Its Potency is “inactive”.

Question: Which Potency does the source give for `O=[As](O)(O)c1cccnc1` here?
Answer: Its Potency is “inactive”.

Question: How did the Potency turn out when `O=C(OC1CN2CCC1CC2)c1ccc(Cl)cc1` (configuration not stated) was run?
Answer: The Potency was “inactive”.

Question: `CN(C(=O)Cc1ccc(Cl)c(Cl)c1)[C@@H]1CC[C@]2(CCCO2)C[C@H]1N1CCCC1` was tested. Which Potency did it give?
Answer: The Potency was “inactive”.

Question: Which Potency does the source give for `O=[As](O)(c1cccc(O)c1)c1cccc(O)c1` here?
Answer: Its Potency is “inactive”.

Question: `Cc1cccc(OCC(=O)OC2CN3CCC2CC3)c1` (configuration not stated) was tested. Which Potency did it give?
Answer: The Potency was “inactive”.

Question: For `NC(=O)Nc1ccc([As](=O)(O)O)cc1`, which Potency is on record?
Answer: The Potency was “inactive”.

Question: Which Potency does the source give for `O=[N+]([O-])CC(O)c1ccc([N+](=O)[O-])cc1` (configuration not stated) here?
Answer: Its Potency is “inactive”.

Question: For `O=[N+]([O-])c1ccc2c(c1)nnn2O`, which Potency is on record?
Answer: Its Potency is “inactive”.

Question: How did the Potency turn out when `CN(C(=O)Cc1ccccc1)[C@@H]1CC[C@]2(CCCO2)C[C@H]1N1CCCC1` was run?
Answer: The Potency was “inactive”.

Question: With `CCOP1(=S)c2c(C)nn(CCC#N)c2N=C(c2ccc(F)cc2)N1C` (configuration not stated) as the compound, how does the Potency read?
Answer: The Potency was “inactive”.

Question: `CS(=O)(=O)c1cc([N+](=O)[O-])c2no[n+]([O-])c2c1` was tested. Which Potency did it give?
Answer: The Potency was active: 8.91 µM.

Question: Which Potency does the source give for `CCOP1(=S)c2c(C)nn(CCC#N)c2N=C(c2ccccc2F)N1C` (configuration not stated) here?
Answer: The Potency was “inactive”.

Question: With `O=P(Nc1nccs1)(Oc1ccccc1)Oc1ccccc1` as the compound, how does the Potency read?
Answer: Its Potency is “inactive”.

Question: For `Nc1ccccc1[As](=O)(O)c1ccccc1`, which Potency is on record?
Answer: The Potency was “inactive”.

Question: With `O=C(O)COc1ccc([As](=O)(O)O)cc1[N+](=O)[O-]` as the compound, how does the Potency read?
Answer: The Potency was “inactive”.

Question: For `CC(C)c1ccc(OP(=O)(Nc2ccccn2)Oc2ccccc2F)cc1` (configuration not stated), which Potency is on record?
Answer: Its Potency is “inactive”.

Question: `ClCCSc1nnc(-c2cccnc2)o1` was tested. Which Potency did it give?
Answer: Its Potency is “inactive”.

Question: With `CC(C)NC(=O)NP(=O)(Oc1ccccc1)Oc1ccccc1` as the compound, how does the Potency read?
Answer: The Potency was “inactive”.

Question: For `O=[As](O)(c1ccc(O)cc1)c1ccccc1O`, which Potency is on record?
Answer: Its Potency is “inactive”.

Question: `C[As](=O)(O)c1cccc(C(=O)O)c1` was tested. Which Potency did it give?
Answer: The Potency was “inactive”.

Question: Which Potency does the source give for `Cc1ccc(OP(=O)(Nc2ccc([N+](=O)[O-])cn2)Oc2ccc(C)cc2)cc1` here?
Answer: Its Potency is “inactive”.

Question: `COc1ccc(N/C(=N/P(=O)(N2CCOCC2)N2CCOCC2)N2CCOCC2)cc1` was tested. Which Potency did it give?
Answer: Its Potency is “inactive”.

Question: How did the Potency turn out when `O=C(OC1CN2CCC1CC2)C12CC3CC(CC(C3)C1)C2` (configuration not stated) was run?
Answer: Its Potency is “inactive”.

Question: Which Potency does the source give for `Cc1cc(=O)[nH]c(N[N+](=O)[O-])n1` here?
Answer: Its Potency is “inactive”.

Question: Which Potency does the source give for `COc1ccc2nc(NP(=O)(c3ccccc3)c3ccccc3)sc2c1` here?
Answer: The Potency was “inactive”.

Question: With `COc1cc(I)ccc1[As](=O)(O)O` as the compound, how does the Potency read?
Answer: Its Potency is “inactive”.

Question: With `CCOC(=O)c1ccc(NC(=O)C(C)(CCl)SC)cc1` (configuration not stated) as the compound, how does the Potency read?
Answer: Its Potency is “inactive”.

Question: With `COP1(=S)c2c(C)nn(CCC#N)c2N=C(c2ccc(F)cc2)N1C` (configuration not stated) as the compound, how does the Potency read?
Answer: The Potency was “inactive”.

Question: With `O=C(COc1ccccc1)OC1CN2CCC1CC2` (configuration not stated) as the compound, how does the Potency read?
Answer: Its Potency is “inactive”.

Question: `CCOC(=O)Nc1cccc([As](=O)(O)O)c1` was tested. Which Potency did it give?
Answer: Its Potency is “inactive”.

Question: How did the Potency turn out when `O=[N+]([O-])c1ccc(Nc2ccc(Oc3ccc([N+](=O)[O-])cc3[N+](=O)[O-])cc2)c([N+](=O)[O-])c1` was run?
Answer: Its Potency is “inactive”.

Question: How did the Potency turn out when `O=P(Nc1ccccn1)(c1cccc2ccccc12)c1cccc2ccccc12` was run?
Answer: Its Potency is “inactive”.

Question: For `Cc1cc(SC(NC=O)C(Cl)(Cl)Cl)ncn1` (configuration not stated), which Potency is on record?
Answer: The Potency was “inactive”.

Question: For `CCOC(=O)Nc1ccc([As](=O)(O)O)c(O)c1`, which Potency is on record?
Answer: The Potency was “inactive”.

Question: How did the Potency turn out when `O=[N+]([O-])c1ncn(CCn2ncnc2[N+](=O)[O-])n1` was run?
Answer: The Potency was “inactive”.

Question: For `O=[N+]([O-])c1cccc(NC2=NCC(CBr)S2)c1` (configuration not stated), which Potency is on record?
Answer: The Potency was “inactive”.

Question: How did the Potency turn out when `O=C(O)CNc1ccc([As](=O)(O)O)cc1` was run?
Answer: The Potency was “inactive”.

Question: `O=C(Nc1cc([As](=O)(O)O)ccc1O)c1ccccc1` was tested. Which Potency did it give?
Answer: The Potency was “inactive”.

Question: `Nc1ccc([As](=O)(O)c2ccc(N)cc2)cc1` was tested. Which Potency did it give?
Answer: The Potency was “inactive”.

Question: How did the Potency turn out when `CCN(/C(=N/P(=O)(N1CCOCC1)N1CCOCC1)N1CCOCC1)c1ccc(OC)cc1` was run?
Answer: Its Potency is “inactive”.

Question: `CC(C)=N/N=C(\N)N[N+](=O)[O-]` was tested. Which Potency did it give?
Answer: Its Potency is “inactive”.

Question: `CN(C)C(=O)OCCc1n(C)cc[n+]1C` was tested. Which Potency did it give?
Answer: Its Potency is “inactive”.

Question: With `CC1CCN(C(=O)Oc2c(Cl)cc(Cl)c3cccnc23)CC1` as the compound, how does the Potency read?
Answer: The Potency was “inactive”.

Question: `CC(=O)C1=CCCC2CCC1N2` (configuration not stated) was tested. Which Potency did it give?
Answer: The Potency was “inactive”.

Question: Which Potency does the source give for `O=[N+]([O-])c1cccc2n[nH]nc12` here?
Answer: Its Potency is “inactive”.

Question: How did the Potency turn out when `CC(=O)N1C2C3N(C(C)=O)C1C1N(C(C)=O)C(C(N1C(C)=O)N3C(C)=O)N2C(C)=O` was run?
Answer: The Potency was “inactive”.

Question: How did the Potency turn out when `Cc1ccc(NP(=O)(Oc2ccccc2)Oc2ccccc2)nc1` was run?
Answer: Its Potency is “inactive”.

Question: With `O=[N+]([O-])c1cc([N+](=O)[O-])c(CCNc2ccccc2)c([N+](=O)[O-])c1` as the compound, how does the Potency read?
Answer: Its Potency is active: 2.82 µM.

Question: How did the Potency turn out when `CC(C)CC(=O)NC(Sc1ccc(Cl)cc1)C(Cl)(Cl)Cl` (configuration not stated) was run?
Answer: Its Potency is “inactive”.

Question: For `Oc1ccccc1CNc1ccccn1`, which Potency is on record?
Answer: Its Potency is “inactive”.

Question: Which Potency does the source give for `Cc1c2non([O-])c-2c(C)[n+](=O)[n+]1[O-]` here?
Answer: Its Potency is active: 11.2 µM.

Question: How did the Potency turn out when `O=C(NC(Sc1ccncn1)C(Cl)(Cl)Cl)c1ccccc1` (configuration not stated) was run?
Answer: The Potency was “inactive”.

Question: For `NC(=O)c1cc([N+](=O)[O-])cc([N+](=O)[O-])c1N`, which Potency is on record?
Answer: The Potency was “inactive”.

Question: For `CC1=NCCc2c1[nH]c1ccccc21`, which Potency is on record?
Answer: Its Potency is active: 12.6 µM.

Question: For `Cc1ccc(N/C(=N/P(=O)(N2CCOCC2)N2CCOCC2)N2CCOCC2)cc1`, which Potency is on record?
Answer: Its Potency is “inactive”.

Question: How did the Potency turn out when `COc1ccccc1OP(=O)(Nc1ccc(C)cn1)Oc1ccccc1OC` was run?
Answer: Its Potency is “inactive”.

Question: How did the Potency turn out when `Cc1ccc(OP(=O)(Nc2nccs2)Oc2ccc(C)cc2)cc1` was run?
Answer: The Potency was “inactive”.
